Test results: the SangsterLogP compilation

| logP | SMILES |
| --- | --- |
| 2.3 | O=C(OCC(=O)N1CCCCCC1)c1ccccc1 |
| 1.27 | CCN(C)C(=O)COC(=O)c1ccccc1 |
| 1.2 | O=C(OCC(=O)N1CCC1)c1ccccc1 |
| 2.9 | CC1CCCC(C)N1C(=O)COC(=O)c1ccccc1 (stereo unspecified) |
| 3.8 | CC(C)CN(CC(C)C)C(=O)COC(=O)c1ccccc1 |
| 1.44 | O=C(OCC(=O)N1CCCC1)c1ccccc1 |
